From patent EP3820879B1, “PHOSPHORUS-CONTAINING PRODRUGS OF GEMCITABINE” (Changchun Changcheng Pharmaceutical Technology Co., LTD, priority 2018, dated 2020)

Key:
[1] = Mouse pharmacokinetic study: plasma exposure of prodrug and dFdC; type: in vivo, C57BL/6 mice; details: Figure 1
Procedure: (§1) C57BL/6 mice used in this experiment were purchased from Beijing Vital River Laboratory Animal Technology Co., Ltd., and male mice with a body weight in the range of 16~19 g were tested for administration. The animals were housed with appropriate air conditions (temperature: 20~25 °C; humidity: 40%~70%; light/dark cycle: 12 hours), and were provided with the food and water ad lib.
(§2) The solution media for IV administration were DMSO: 30% solutol HS-15:saline = 10:10:80 (v/v/v). Test substances were dissolved in the media to obtain a clear solution, and filtered through PTFE to get a colorless clear solution for IV administration.
The solution media for oral administration were DMSO: 30% solutol HS-15:saline = 10:10:80 (v/v/v). […]
(§3) The pharmacokinetic (PK) profile of liver-targeted gemcitabine (dFdC) prodrug according to Formula I (i.e., Compound 4) was evaluated in male […] mice following intravenous administration (i.v.) at an equivalent dose to 15 mg/kg of Gemcitabine or following oral administration (PO or i.g.) at a dose of 80 mg/kg.
Blood samples of designated animals (n = 3/time point/compound) were taken at 0.083, 0.25, 0.5, 1, 2, 4, and 8 hours following i.v. administration, and at 0.25, 0.5, 1, 2, 4, 8 and 24 hours following PO administration, respectively. […] Pharmacokinetic parameters were calculated using WinNonlin software (Pharsight Corp., Mountain View, CA).

[2] = Mouse pharmacokinetic study: liver concentrations of dFdC and dFdU at 2h; type: in vivo, C57BL/6 mice; details: Fig. 2
Procedure: as §1, §2
The solution media for oral administration were DMSO: 30% solutol HS-15:saline = 10:10:80 (v/v/v). Test substances were dissolved in the media to obtain a clear solution.
The animals were randomly divided into groups. All animals were fasted overnight (12-15 hours) before administration (but provided with water ad lib) and provided with foods 4 hours after the administration. As to IV administration of gemcitabine, the mice were administered with the formulations by vena caudalis injection (at dose of 15 mg/kg).
as §3
Blood samples of designated animals (n = 3/time point/compound) were taken at 0.083, 0.25, 0.5, 1, 2, 4, and 8 hours following i.v. administration, and at 0.25, 0.5, 1, 2, 4, 8 and 24 hours following PO administration, respectively. Systemic blood samples were collected into EDTA-K2-treated tubes containing tetrahydrouridine (THU, 0.5 mM) to inhibit further metabolism of gemcitabine (dFdC) to dFdU. In addition, at 2 hours following either i.v. or PO administration, 3 animals were sacrificed for collection of liver tissues. Plasma was isolated by centrifugation and frozen prior to analysis. Liver tissue was processed by homogenization in X5 volume of 20% methanol, and the homogenate was subject to centrifugation for collection of the supernatant. Both plasma and tissue concentrations of prodrugs, parent drug (i.e., gemcitabine, aka dFdC) and dFdU (a major metabolite of dFdC) were determined by LC/MS/MS analysis (Instrument: Agilent 6470. MS: Positive Ion, AJS ESI, MRM Detection; HPLC condition: Column: Agilent ZORBAX XDB-C18, 5 µm, 2.1×50mm (Column No.: 50-241), Flow rate: 0.30 mL·min^-1). Pharmacokinetic parameters were calculated using WinNonlin software (Pharsight Corp., Mountain View, CA).

[3] = i.v., Gemcitabine 15 mg/kg or Compound 4 at equivalent dose

O=c1nc(N[P@@]2(=O)OCC[C@@H](c3cccc(Cl)c3)O2)ccn1[C@@H]1OC(CO)[C@@H](O)C1(F)F (stereo partly drawn)
exposure of the prodrug in the systemic circulation ([1]; PO 80 mg/kg): significant exposure of the prodrug | exposure of the prodrug in the systemic circulation ([1]; i.v., equivalent dose to 15 mg/kg of gemcitabine): significant exposure of the prodrug | dFdC levels in the liver ([2]; PO 80 mg/kg): significant levels of dFdC | dFdU levels in the liver ([2]; PO 80 mg/kg): much less than that in Gemcitabine i.v. administration group | dFdC levels in the liver [2, 3]: significant levels of dFdC | dFdU levels in the liver [2, 3]: much less than that in Gemcitabine i.v. administration group
